A549 tox – counter-screen for Nrf2 inhibitors: cytotoxicity in A549 cells | A549 ARE-Fluc cells, CellTiter-Fluor viability, 18-24 h | Potency, µM (highest dose often 46 µM), inactives show at the top dose activity change, negative = cytotoxicity, most hits filed as inhibitors | AID 504648 | actives 0.16% (n = 390,000); note: potency is the fitted concentration of half-maximal effect; % is set by controls: 0 for no effect and ±100 for the full control effect
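A549 ARE-Fluc cells in 5% FBS OPTI-MEM, 5000 cells/well, rested 2 h then exposed to compounds in concentration-response for 18-24 h at 37 °C. Viability by CellTiter-Fluor fluorescence (Ex 405/Em 525) after 30 min; luciferase luminescence (BugLite, 15 min, RT) read afterwards.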
IL2 activator – IL-2 activation; actives 0.065% (n = 360,000); activation, % (series mostly up to about 46 µM); IL-2 activation reporter assay, cell-based qHTS; stimulated with anti-CD3/CD4/CD28 beads; in transgenic mouse T cells; in the data active = activation above about 50%; inconclusive = mostly about 30% to 49%; note: 0% is about no effect
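Screening format: compound pinned onto unstimulated transgenic mouse T cells, 60 min incubation, then anti-CD3/anti-CD4/anti-CD28 bead stimulation for 18 hours at 37 degrees C, followed by EGFP and DsRed detection.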
Nrf2 block – inhibitors of Nrf2 signaling | A549 ARE-Fluc reporter, luciferase luminescence, 18-24 h | Potency, µM (doses to about 46 µM), inactives show at the top dose activity change, negative = inhibition, most hits filed as inhibitors | actives 2.1% (n = 360,000) | AID 504444; note: potency is the fitted concentration of half-maximal effect; % is set by controls: 0 for no effect and ±100 for the full control effect; nearly all actives have a fitted effect of over 60% in size
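Two sequential reads on A549 ARE_Fluc cells exposed to compound for 18-24 h: a CellTiter-Fluor fluorescence read for viability, then a luciferase luminescence read for Nrf2/ARE activity.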
ClpP mod – qHTS Assay for Activators of ClpP; ATP-dependent Clp protease proteolytic subunit (Bacillus subtilis (strain 168)), P80244; purified B. subtilis ClpP, FRET peptide cleavage, 20 min; Potency, µM (highest dose often 57.5 µM), for the others: top-dose activity change, negative = active; actives 1.9% (n = 340,000); active = well fitted falling curve with a large enough effect; inconclusive = small, poorly fitted or top-dose-only effect; inactive = no such curve, though single readings can be large or run the other way; note: potency is the fitted concentration of half-maximal effect; the source files actives as falling curves though it sought activators and does not explain the sign; nearly all actives have a fitted effect of over 65% in size
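ClpP 10 microg/mL final, pH 8 Tris/KCl buffer with BSA, glycerol, Tween-20; compound pinned in; FRET-FV substrate; RT 20 min; Ex320/Em430; ΔFRET vs ADEP 5.8 microM, DMSO, no enzyme.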
miR-21 reporter – raises the signal of a miR-21 reporter | HeLa miR-21 FLuc reporter, luciferase, 48 h | Potency, µM (doses to about 38.3 µM), for the others: at the highest dose reporter change, positive = more light | 340,000 tested, under 10 active | AID 2288; active = well fitted rising curve with a large enough effect; inconclusive = small, poorly fitted or top-dose-only effect; inactive = no such curve, though single readings can be large or run the other way;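 also: % of control where 0% means no effect; miR-21 action dims this reporter so a rising signal means less miR-21 action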
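HeLa cells stably expressing CMV-driven firefly luciferase with a downstream miR-21 binding sequence, endogenously expressing miR-21, were treated with titrations (up to about 40uM final) for 48 hours at 37 degree Celsius. Luciferase luminescence was read after lysis.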
Nrf2 activator – Nrf2 pathway activation. actives 0.31% (n = 410,000). Potency, µM (top dose mostly 46.1 µM), for the others: top-dose activation, hits mostly activators. AID 624171. AREc32 ARE-luciferase reporter (MCF7-derived line), luminescence, 24 h; note: potency is the fitted concentration of half-maximal effect; % of control where 0% means no effect; nearly all actives have a fitted effect of over 65% in size
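AREc32 cells carrying an ARE-driven firefly luciferase reporter were seeded at 1000 cells/well in OPTI-MEM with 5% FBS, then exposed to compound for 24 hr at 37 deg C. Luminescence was read with Steady-Glo after 30 min at RT.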
The depositor's hits bear a star; ? = inconclusive; · = no result; ! = not confirmed by another sample. Rows were chosen to be rich in hits. Some 3.7% of all compounds tested hit in one or more screens of this group. Unless noted, calls come from the whole dose curve; as a rule, active = well fitted curve in the direction sought with a large enough effect; inconclusive = small, poorly fitted or top-dose-only effect, or another doubt; inactive = no such curve, though single readings can be large; an effect the other way counts as inactive or inconclusive.

Chains of the proteins cited; added tags and fusions are not shown.
ATP-dependent Clp protease proteolytic subunit (Bacillus subtilis (strain 168)), P80244, UniProt P80244, whole entry, looked up: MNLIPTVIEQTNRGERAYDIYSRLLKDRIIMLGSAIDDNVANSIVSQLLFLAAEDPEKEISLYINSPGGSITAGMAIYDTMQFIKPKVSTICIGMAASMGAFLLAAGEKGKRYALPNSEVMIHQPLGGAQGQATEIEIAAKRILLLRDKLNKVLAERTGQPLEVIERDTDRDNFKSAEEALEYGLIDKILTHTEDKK

no. | Molecule | A549 tox | IL2 activator | Nrf2 block
1 | CCOC(=O)C1CCC(CN(Cc2ccc(OC)cc2)S(=O)(=O)c2ccc(F)c(C(=O)Nc3c(C)cccc3C)c2)CC1 (centres undefined) | 5% | · | ·
2 | CN(Cc1ccccc1)c1ccc(/C=C/c2sc3ccccc3[n+]2C)cc1 | · | · | ·
3 | O=C(C1CCCN(S(=O)(=O)c2ccc(Br)s2)C1)N1CCCCCC1 (centres undefined) | 4% | -1 | ·
4 | O=C(C1CCCN(S(=O)(=O)c2ccc(Br)s2)C1)N1CCN(c2ccccc2)CC1 (centres undefined) | -16% | -4 | 16µM*
5 | O=C(c1ccc(Cl)cc1)N1CCCC(C(=O)N2CCN(c3ccccc3)CC2)C1 (centres undefined) | 13% | 1 | -5%
6 | O=C(c1ccc(F)cc1)N1CCCC(C(=O)N2CCN(c3ccccc3)CC2)C1 (centres undefined) | 2% | -3 | -2%
7 | CCn1cc(S(=O)(=O)c2ccc(C)cc2C)c(=O)c2cc(F)c(N3CCCCC3)cc21 | -12% | · | 0%
8 | CCOC(=O)C1CCN(C(=O)CC(NS(=O)(=O)c2ccc(OC)cc2)C(C)C)CC1 (centres undefined) | -2% | 1 | 2%
9 | Cc1ccc2nc(CSc3nnc(NC(=O)C(C)C)s3)cc(=O)n2c1 | 9% | · | ·
10 | CC(=O)N(Cc1ccc(F)cc1)C1=C(NCCc2ccccc2)C(=O)c2ccccc2C1=O | 23µM* | -2 | 21µM*

no. | ClpP mod | miR-21 reporter | Nrf2 activator
1 | 1% | 3% | 0%
2 | 1% | · | ·
3 | -5% | 3% | 0%
4 | 2% | 20% | 0%
5 | -1% | -11% | 0%
6 | 28µM* | 0% | 0%
7 | ? | -3% | 1%
8 | 32µM* | 1% | 0%
9 | -11% | -4% | 1%
10 | 1% | ? | -1%

Additional results follow.
no. | Molecule | A549 tox | IL2 activator | Nrf2 block
11 | CCN(CC)CCCn1c(=S)[nH]c2ncccc2c1=O | 0% | -2 | 23%
12 | CCCCc1nc(NCCNC(=O)c2ccco2)c(C#N)c2c1CSC(C)(C)C2 | 3% | -4 | 7%
13 | CCCCc1nc(NCCNC(=O)c2ccccc2)c(C#N)c2c1CSC(C)(C)C2 | ? | 0 | ·
14 | CCCCc1nc(Cl)c(C#N)c2c1CSC(C)(C)C2 | ? | 0 | -26%
15 | COc1cccc(NC(=O)CN(C)C(=O)CCC(=O)c2cc(C)sc2C)c1 | -7% | -2 | -19%
16 | COc1ccc(Cl)cc1NC(=O)CN(C)C(=O)CCC(=O)c1cc(C)sc1C | 16µM* | -1 | 8.2µM*
17 | Fc1ccc2[nH]c3c(NCc4ccccc4)ncnc3c2c1 | -14% | -6 | 18µM*
18 | C=CCNc1ncnc2c1[nH]c1ccc(C)cc12 | ? | -3 | ?
19 | OCCCNc1ncnc2c1[nH]c1ccccc12 | 1% | 0 | -11%
20 | CCN(CC)CCNc1ncnc2c1[nH]c1ccc(OC)cc12 | · | · | ·

no. | ClpP mod | miR-21 reporter | Nrf2 activator
11 | 32µM* | -4% | 0%
12 | 25µM* | 1% | 4%
13 | 28µM* | 8% | 0%
14 | -1% | -8% | 2%
15 | · | · | 0%
16 | 0% | · | 10%
17 | 1% | ? | 6%
18 | 16µM* | -16% | 3%
19 | · | -21% | 0%
20 | · | -2% | ·

Further compounds.
no. | Molecule | A549 tox | IL2 activator | Nrf2 block
21 | COc1ccc2[nH]c3c(NCc4ccco4)ncnc3c2c1 | 7% | 2 | ?
22 | O=C(CN1CCN(S(=O)(=O)c2ccc(F)cc2)CC1)Nc1cccc(C(F)(F)F)c1 | -6% | -1 | -16%
23 | CC1CN(CC(=O)Nc2cccc(C(=O)Nc3cccc(C(F)(F)F)c3)c2)CC(C)O1 (centres undefined) | -22% | -1 | 16µM*
24 | COc1cccc(NC(=O)CN2CCN(S(=O)(=O)c3ccc(F)cc3)CC2)c1 | -2% | -2 | 9%
25 | CCC(=O)NC(c1cccc(C)c1)c1cc(Cl)c2cccnc2c1O (centres undefined) | -10% | · | 6%
26 | COc1ccc(OC)c(NC(=O)Cn2cc(C(=O)c3ccco3)c3ccccc32)c1 | 0% | -2 | 15µM*
27 | O=C(O)/C=C\C(=O)Nc1ccccc1C(=O)N1CCN(c2ccc(Cl)cc2)CC1 | 3% | 0 | ·
28 | CC(=O)N1CCC2(CC1)CC(=O)c1cc(OCC(=O)NCc3ccco3)ccc1O2 | 16% | 0 | 14%
29 | CC(=O)N1CCC2(CC1)CC(=O)c1cc(OCC(=O)N3CCCC3)ccc1O2 | 3% | 0 | -8%
30 | CC(C)(C)c1ccc(OCC(=O)NCc2ccco2)cc1 | 14% | 3 | 27%

no. | ClpP mod | miR-21 reporter | Nrf2 activator
21 | 16µM*! | -19% | 3.2µM*
22 | 28µM* | 18% | -1%
23 | -2% | 19% | 2%
24 | 0% | 1% | 1%
25 | · | · | ·
26 | -3% | 18% | 0%
27 | 20µM* | -5% | 4%
28 | 11µM* | -3% | 0%
29 | 4% | -3% | -2%
30 | 2% | -8% | 0%

Next part:
no. | Molecule | A549 tox | IL2 activator | Nrf2 block
31 | CC(=O)N1CCC2(CC1)CC(=O)c1cc(OCC(=O)NCc3ccc(C)cc3)ccc1O2 | -18% | 2 | -14%
32 | COc1ccccc1OCCn1c(-c2ccc(Br)cc2)nc2ccccc2c1=O | 7% | · | 10%
33 | CCOc1ccccc1NC(=O)CN1C(=O)COc2ccc(S(=O)(=O)NC3CCCC3)cc21 | 2% | · | 7%
34 | COC(=O)c1sccc1-c1ccc(/C=N/OCc2c(Cl)cccc2Cl)o1 | -11% | -2 | 27%
35 | COC(=O)c1sccc1-c1ccc(C(=O)Nc2ccccc2)o1 | -13% | -1 | ?
36 | CCCN1CCN(C(c2cc3cc(OCC)ccc3[nH]c2=O)c2nnnn2C2CCCCC2)CC1 (centres undefined) | 12% | -2 | 0%
37 | COc1ccc(C(c2nnnn2C2CCCCC2)N2CCN(C)CC2)c(OC)c1 (centres undefined) | 9% | 2 | 4%
38 | CCOc1ccc2[nH]c(=O)c(CN(CCO)C(c3nnnn3C3CCCCC3)C(C)C)cc2c1 (centres undefined) | -2% | -1 | -13%
39 | COc1ccc2[nH]c(=O)c(C(c3nnnn3C3CCCCC3)N3CCN(C)CC3)cc2c1 (centres undefined) | 3% | -2 | 8%
40 | Cn1cc(S(=O)(=O)N2CCCCC2)cc1C(=O)Nc1ccc(OC(F)(F)F)cc1 | 2% | · | ·
41 | Cc1c(Cl)cccc1NC(=O)c1cnc2sc(N3CCCC3)nn2c1=O | -2% | · | 19%

no. | ClpP mod | miR-21 reporter | Nrf2 activator
31 | 28µM* | -1% | 2%
32 | 1% | -2% | 4%
33 | -4% | -2% | 0%
34 | 5µM* | 0% | 5%
35 | -5% | -47% | 19%
36 | 28µM* | -5% | 0%
37 | 0% | -6% | 0%
38 | -19% | -8% | 0%
39 | 32µM* | 1% | 0%
40 | 1% | -3% | 0%
41 | -1% | 0% | 0%

Record cards (already shown). Values in the order: A549 tox	IL2 activator	Nrf2 block	ClpP mod	miR-21 reporter	Nrf2 activator
`COc1ccc(C(c2nnnn2C2CCCCC2)N2CCN(C)CC2)c(OC)c1` (centres undefined) is entered as 9%	2	4%	0%	-6%	0%
`O=C(O)/C=C\C(=O)Nc1ccccc1C(=O)N1CCN(c2ccc(Cl)cc2)CC1` is entered as 3%	0	·	20µM*	-5%	4%
`COc1cccc(NC(=O)CN(C)C(=O)CCC(=O)c2cc(C)sc2C)c1` is entered as -7%	-2	-19%	·	·	0%
`CCn1cc(S(=O)(=O)c2ccc(C)cc2C)c(=O)c2cc(F)c(N3CCCCC3)cc21` is entered as -12%	·	0%	?	-3%	1%

High-throughput results: PubChem, National Center for Advancing Translational Sciences (NCATS)
